# Antibody variant affinities, Ab-14 light chain, assay B

From the AlphaSeq antibody data of Li et al. 2023 (doi:10.1038/s41467-023-39022-2), copy in the FLAb collection.

Binding partner: SARS-CoV-2 spike HR2 peptide, sequence PDVDLGDISGINAS.

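The parent was found by panning a naive human phage display library on the peptide. These sequences belong to a second round, designed from the earlier measurements on random variants of the parent. Several design methods are mixed in this list. The scFvs were displayed on barcoded MATa yeast, the peptide on MATalpha yeast. Binding brings cells together so that they mate, and sequencing counts the barcode pairs among the diploids. Read counts were normalised to the haploid input and turned into Kd by a linear fit to BCL2-family pairs of known affinity, for each replicate. Each pool was mated in six replicate cultures.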

Ab-14 is the parent antibody, in scFv form: VH, then a 15-residue (Gly4Ser)3 linker, then VL. The heavy chain is unchanged in all variants.
VH: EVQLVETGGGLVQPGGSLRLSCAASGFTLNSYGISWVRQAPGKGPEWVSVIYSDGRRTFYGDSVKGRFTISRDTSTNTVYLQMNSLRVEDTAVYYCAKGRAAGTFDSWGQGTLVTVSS
VL: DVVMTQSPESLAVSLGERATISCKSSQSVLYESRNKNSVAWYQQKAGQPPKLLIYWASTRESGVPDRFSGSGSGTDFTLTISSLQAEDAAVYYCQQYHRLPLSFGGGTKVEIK

The parent's light chain CDRs are KSSQSVLYESRNKNSVA, WASTRES, QQYHRLPLS; each variant's own CDRs replace them letter for letter.
This list holds designs with more than six substitutions.
The Kd shown is the geometric mean over detected replicates; a lower Kd is a better binder.
An entry "nd" has no value in the source: the pair was not observed among the diploids in any replicate. This suggests poor binding but is not conclusive.
The range of this assay differs from that of the first round, and the authors advise against merging the two.

The variant KISQMSTIESIKHNSVA / QTSTRVS / QQYDRLPLS showed 9.9 nM (6 of 6 replicates). For KISQAANYLSRVMNSVA / DNSTRGS / QQYFRLPLS, the assay gave 3.5 nM (6 of 6 replicates). The variant MISDLTMYGSRNVNSVA / DLSYRGS / QQYHRLPLS showed 4.5 nM (6 of 6 replicates). The variant QFARAMYHGLNDNQSIA / DAMTYIK / QQYSRLPLF gave nd (0 of 6 replicates). For KLSQSVLMGDRNKSSVA / QASTREM / QQYHRLPLS, the assay gave 4.3 nM (6 of 6 replicates). The variant KINGVLINNTIDMNAIA / QEHISVL / QQYFHLPLS gave 49 nM (1 of 6 replicates). With KIGGVTNGISFSKNSVA / EQSTRED / QQYDRLPLS the result was 3.8 nM (6 of 6 replicates).

For KASWSNLYESRNANSVA / NASQRCS / QQYHRLPLS, the assay gave 680 pM (6 of 6 replicates). The variant QISTITGHMSTIKNNVA / EMVTRAN / QQYNRLPLS showed 2.4 nM (6 of 6 replicates). The variant KLQMSEMMESRWCNSVA / QASTREE / QQYHRLPLS showed 1.7 nM (6 of 6 replicates). The variant KQDQSWLSESDNKNSVA / SANTRES / QQYHRLPLS gave 16 nM (6 of 6 replicates). For KLVNFMNRGTHHTSNIA / DAQNRTD / QQYYRLPLA, the assay gave 15 nM (6 of 6 replicates). With KWEMSQLYESRNKNSVA / NASLRMS / QQYHRLPLS the result was 2.6 nM (6 of 6 replicates). With MMSQVTGMELRQRNNVA / QTSTREA / QQYDRLPLI the result was 2.0 nM (6 of 6 replicates).

The variant KIGMTLNQLMHKKNNVA / DLVMRAN / QQYHRLPLS showed 3.7 nM (6 of 6 replicates). With KIAATVLYESGAANSVA / QNSTRES / QQYHRLPLS the result was 47 nM (6 of 6 replicates). With KIDQSELGESVNKNSVA / NASTRME / QQYHRLPLS the result was 960 pM (6 of 6 replicates). The variant KISMLQRFESQAKNSIA / EMSRREN / QQYHRLPLS showed 1.9 nM (6 of 6 replicates). The variant MISNVMNTLTRQGNNVA / DLAERER / QQYFRLPLS gave 11 nM (6 of 6 replicates). For VIDAFNFSNGEKWNNIA / QDSVRLQ / QSYQRLPLA, the assay gave nd (0 of 6 replicates). The variant MMSQVTGQGQRHRNNVA / QTSEREP / QQYDRLPLI showed 9.5 nM (6 of 6 replicates).

The variant TISMHTSLFSQTINNVA / EVSTREQ / QQYDRLPLT showed 1.3 nM (6 of 6 replicates). With HISMSMNYLSRNKNNIA / EESTRED / QQYHRLPLS the result was 310 pM (6 of 6 replicates). With ALTFPPESVDHHMNNIA / STSKRCM / QQYARLPLS the result was 1.4 nM (6 of 6 replicates). The variant KLEMSVQLEMRNKNSVA / SASTRER / QQYHRLPLS gave 2.2 nM (6 of 6 replicates). With KIRDQQYSQSEMEDNIA / QESTRHQ / QQYFRLPLS the result was 6.0 nM (6 of 6 replicates). For KVSISEPYEERNKNSVA / NASQRMS / QQYHRLPLS, the assay gave 550 pM (6 of 6 replicates). With QLRDAQWAEGMNIQSIA / ENEVSKD / QQYNRLPLS the result was 82 nM (1 of 6 replicates).

The variant KLSGSMLYELRNLNSVA / QASQRMS / QQYHRLPLS gave 320 pM (6 of 6 replicates). With KLRSVTGTEKVKGNNVA / EMETREN / QQYDRLPLS the result was 2.6 nM (6 of 6 replicates). The variant KFSQMVNTMSVSKSAVA / EMSTREN / QQYNRLPLS gave 25 nM (6 of 6 replicates). The variant MMSQVTGMGTRHRNNVA / QTSMREP / QQYDRLPLV gave 3.2 nM (6 of 6 replicates). For SLAESAHLETRDKNSVA / DNTTRES / QHYDRLPLS, the assay gave 490 nM (2 of 6 replicates). The variant TISQITSLFSQNINNVA / EVSTRLN / QQYDRLPLS gave 18 nM (6 of 6 replicates). The variant MVTQMAMSGMTNKRSVA / NANTRED / QQYHRLPLI gave 4.2 nM (6 of 6 replicates).

The variant MISQLLNMGQFAINSVA / QASIRNQ / QQYDRLPLI showed 460 nM (1 of 6 replicates). With MLSQTVDYNYTAGNSVA / EVTERCN / QQYKRLPLS the result was 21 nM (6 of 6 replicates). For KLSQLFYKEMRNKNNVA / EMTTRGS / QQYDRLPLS, the assay gave 1.7 nM (6 of 6 replicates). The variant KFSYEYEMVNTAKESIA / NAHTVQM / QQYSRLPLA gave 14 nM (6 of 6 replicates).

The 5 strongest on average among those seen in every replicate, once more:

{"CDR-L1": "HISMSMNYLSRNKNNIA", "CDR-L2": "EESTRED", "CDR-L3": "QQYHRLPLS", "Kd (apparent)": "310 pM", "detected": "6 of 6"}
{"CDR-L1": "KLSGSMLYELRNLNSVA", "CDR-L2": "QASQRMS", "CDR-L3": "QQYHRLPLS", "Kd (apparent)": "320 pM", "detected": "6 of 6"}
{"CDR-L1": "KVSISEPYEERNKNSVA", "CDR-L2": "NASQRMS", "CDR-L3": "QQYHRLPLS", "Kd (apparent)": "550 pM", "detected": "6 of 6"}
{"CDR-L1": "KASWSNLYESRNANSVA", "CDR-L2": "NASQRCS", "CDR-L3": "QQYHRLPLS", "Kd (apparent)": "680 pM", "detected": "6 of 6"}
{"CDR-L1": "KIDQSELGESVNKNSVA", "CDR-L2": "NASTRME", "CDR-L3": "QQYHRLPLS", "Kd (apparent)": "960 pM", "detected": "6 of 6"}

Background: pairings of all light chain designs with three empty control strains gave a value in 4% of cases (median 430 nM, 5th percentile 38 nM). Values in that range, when seen in few replicates, are hard to tell from nonspecific mating.
The authors' rule: three or more of the six replicates give a measured affinity, fewer mean a poor binder.